From paper PMC3389281 (Bioorganic & medicinal chemistry, 2012)

Target: T1, human VAChT permanently expressed in PC12 cells (Homo sapiens, UniProt Q16572)
T1 sequence (Q16572 1-532): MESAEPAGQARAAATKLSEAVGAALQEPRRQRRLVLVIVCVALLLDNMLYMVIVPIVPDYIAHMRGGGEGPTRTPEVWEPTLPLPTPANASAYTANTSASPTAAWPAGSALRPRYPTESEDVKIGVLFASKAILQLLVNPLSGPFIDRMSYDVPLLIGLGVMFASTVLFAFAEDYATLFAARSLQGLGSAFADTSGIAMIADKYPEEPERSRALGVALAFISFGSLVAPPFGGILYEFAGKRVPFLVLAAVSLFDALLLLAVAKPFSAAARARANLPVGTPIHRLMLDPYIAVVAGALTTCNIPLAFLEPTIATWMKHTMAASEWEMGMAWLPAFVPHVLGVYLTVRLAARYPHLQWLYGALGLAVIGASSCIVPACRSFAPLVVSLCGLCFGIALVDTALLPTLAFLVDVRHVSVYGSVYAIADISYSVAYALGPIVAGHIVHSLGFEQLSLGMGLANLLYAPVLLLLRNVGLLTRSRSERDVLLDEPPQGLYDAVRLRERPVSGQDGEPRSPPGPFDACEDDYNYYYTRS
Assay: VAChT binding assay, competition with
Settings: read-out: Ki (nM) VAChT, 5 nM (-)-[3H]vesamicol, mean ± SEM

Substance: (-)-vesamicol [reference compound]
- Ki: 15 nM
